{"source": "patent US20230129034A1", "about": "“TREATMENT OF DISEASE WITH ESTERS OF SELECTIVE RXR AGONISTS” (Io Therapeutics, Inc., priority 2017, published 2023)", "molecular_target": "T1, RXRβ (Homo sapiens, UniProt P28702)", "T1 construct": "an expression construct including a full length RXRα, RXRβ, or RXRy; expressed in transfected cells; host or cells: CV-1", "T1 sequence (P28702 1-533)": "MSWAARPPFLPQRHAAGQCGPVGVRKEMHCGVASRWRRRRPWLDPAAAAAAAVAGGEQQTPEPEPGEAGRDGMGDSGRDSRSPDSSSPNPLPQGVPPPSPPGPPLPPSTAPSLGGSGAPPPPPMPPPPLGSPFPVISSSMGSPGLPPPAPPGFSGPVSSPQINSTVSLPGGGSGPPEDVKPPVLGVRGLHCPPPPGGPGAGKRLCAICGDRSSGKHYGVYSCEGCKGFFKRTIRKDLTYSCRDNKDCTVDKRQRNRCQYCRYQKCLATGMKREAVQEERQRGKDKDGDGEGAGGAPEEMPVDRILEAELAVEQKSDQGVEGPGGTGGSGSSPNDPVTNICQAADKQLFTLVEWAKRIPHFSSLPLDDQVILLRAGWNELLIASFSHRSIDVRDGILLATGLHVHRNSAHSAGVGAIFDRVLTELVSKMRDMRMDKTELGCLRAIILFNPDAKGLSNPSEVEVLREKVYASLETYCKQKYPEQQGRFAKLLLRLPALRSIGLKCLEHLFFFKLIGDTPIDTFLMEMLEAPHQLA", "assay": "RXR homodimer transactivation assay (rCRBPII/RXRE-tk-Luc reporter, CV-1 cells)", "assay_type": "cell-based"}
{"smiles": "CC(/C=C/[C@@H]1C[C@]1(C)c1ccc2c(c1)C(C)(C)CCC2(C)C)=C\\C(=O)O", "note": "[IRX4204, 3,7-dimethyl-6(S),7(S)-methano,7-[1,1,4,4-tetramethyl-1,2,3,4-tetrahydronaphth-7-yl]2(E),4(E) heptadienoic acid]", "values": [{"measurement": "Efficacy (% of 1 µM IRX4204) RXRβ", "value": "0.47 ±0.05 100 % of 1 µM IRX4204"}]}
